This is a selection; strong and weak results do not stand in their true shares. Some salts and complexes are drawn in separate pieces, as the source files them; their charges need not balance. Activity calls are given as the source filed them. Cut-off read from the data, not from the text of the source: active = inhibition above about 40%; inactive = the rest.
These molecules were tested against Cysteine protease ATG4B (Homo sapiens) (UniProt Q9Y4P1) (assay: ATG4B protease inhibitors, primary screen, biochemical, fluorescence, uHTS (AID 504462)). Settings: ATG4B cleavage of LC3-PLA2, NBD-HPC fluorescence, 1 h; at 8.33 µM; hits give high values.

The chains behind the UniProt entries cited, without tags or fusion partners.
UniProt Q9Y4P1, whole entry: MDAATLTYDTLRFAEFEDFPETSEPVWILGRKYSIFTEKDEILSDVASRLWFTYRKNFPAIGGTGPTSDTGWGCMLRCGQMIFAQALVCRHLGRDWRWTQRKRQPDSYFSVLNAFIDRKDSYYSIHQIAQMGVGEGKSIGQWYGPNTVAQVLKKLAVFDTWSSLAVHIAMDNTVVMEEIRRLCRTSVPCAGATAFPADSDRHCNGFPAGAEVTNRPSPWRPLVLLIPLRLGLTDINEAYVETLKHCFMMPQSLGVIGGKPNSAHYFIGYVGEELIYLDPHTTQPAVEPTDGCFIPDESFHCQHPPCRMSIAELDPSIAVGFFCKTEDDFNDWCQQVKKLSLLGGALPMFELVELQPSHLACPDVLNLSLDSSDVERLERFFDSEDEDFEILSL

Compound	inhibition
Nc1ccc2c(ccc3cccnc32)n1.O=[N+]([O-])c1cc([N+](=O)[O-])c(O)c([N+](=O)[O-])c1	inactive: -7.82%
CCOC(=O)c1ccc(NP(C)(=O)Oc2ccc(Cl)cc2)cc1 (stereo not drawn)	inactive: -7.79%
CP(=O)(OC12CC3CC(CC(C3)C1)C2)OC12CC3CC(CC(C3)C1)C2	inactive: -5.26%
COc1ccccc1OP(C)(=O)Nc1ccccc1Br (stereo not drawn)	inactive: 0.79%
CC(C)(C)c1ccc(OP(C)(=O)O)cc1	inactive: 2.26%
CP(=O)(Nc1ccc(Cl)cc1)Oc1ccc(F)cc1 (stereo not drawn)	inactive: -0.73%
CN(C)C(=O)c1c([N+](=O)[O-])cc([N+](=O)[O-])cc1[N+](=O)[O-]	inactive: -3.29%
COc1ccc(OP(C)(=O)Nc2ccc(Br)cc2)cc1 (stereo not drawn)	inactive: 0.25%
CCN(CC)CC(O)COC(=O)C(O)(c1ccccc1)C1CCCCC1 (stereo not drawn)	inactive: -3.4%
O=C(OCCCN1CCCC1)C(O)(c1ccccc1)C1CCCCC1 (stereo not drawn)	inactive: 6.77%
COc1ccccc1OP(C)(=O)Nc1c(C)n(C)n(-c2ccccc2)c1=O (stereo not drawn)	inactive: -9.11%
CCc1ccc(OP(C)(=O)Nc2cccnc2)cc1 (stereo not drawn)	inactive: 6.75%
CP(=O)(Oc1ccccc1)N1CCOC1=O (stereo not drawn)	inactive: -9.67%
Cc1c(NP(C)(=O)Oc2ccc(C(C)C)cc2)c(=O)n(-c2ccccc2)n1C (stereo not drawn)	inactive: -12.3%
O=[N+]([O-])c1cc([N+](=O)[O-])c(Nc2ccccn2)c([N+](=O)[O-])c1	inactive: -6.27%
COc1ccccc1OP(C)(=O)Nc1ccc(C)cc1C (stereo not drawn)	inactive: -7.74%
CP(=O)(Nc1ccccn1)Oc1ccccc1 (stereo not drawn)	inactive: -3.22%
CCc1ccc(OP(C)(=O)O)cc1	inactive: -7.86%
COc1ccccc1OP(C)(=O)Nc1ccc(Br)cc1 (stereo not drawn)	inactive: 8.06%
COc1ccc(OP(C)(=O)Nc2ccccn2)cc1 (stereo not drawn)	inactive: -3.84%
CN(C)CCOC(=O)C(O)(c1ccccc1)C1CCCC1 (stereo not drawn)	inactive: -1.58%
CCCCCCCCCCCCCCCC1C[N+](C)(C)CCOP(C)(=O)O1 (stereo not drawn)	inactive: 36.4%
CP(=O)(Nc1ccc(Cl)cc1Cl)Oc1ccccc1 (stereo not drawn)	inactive: 4.77%
CP(=O)(OCCOc1ccccc1)OCCOc1ccccc1	inactive: -1.56%

Compound	inhibition
Cc1cc(C)cc(OP(C)(=O)Nc2cccc(C(F)(F)F)c2)c1 (stereo not drawn)	inactive: 11.6%
O=C1C(O)=C([N+](=O)[O-])C(=O)C(O)=C1[N+](=O)[O-]	inactive: -0.89%
COc1ccccc1OP(C)(=O)Nc1ccc(C)c(C)c1 (stereo not drawn)	inactive: 1.05%
COc1ccc(OP(C)(=O)Nc2ccccc2Br)cc1 (stereo not drawn)	inactive: 2.02%
Cc1c([N+](=O)[O-])cc([N+](=O)[O-])c(Br)c1[N+](=O)[O-]	inactive: 5.57%
CCN(CC)CCCOC(=O)C(O)(c1ccccc1)C1CCCCC1 (stereo not drawn)	inactive: -8.11%
CP(=O)(Nc1ccccc1)Oc1ccc(F)cc1 (stereo not drawn)	inactive: 2.73%
CCCCCOc1ccc(NP(C)(=O)Oc2ccc(Cl)cc2Cl)cc1 (stereo not drawn)	inactive: -0.86%
O=[N+]([O-])c1cc([N+](=O)[O-])c(OC2CCCCC2O)c([N+](=O)[O-])c1 (stereo not drawn)	inactive: 4.29%
CCOC(=O)c1ccc(NP(C)(=O)Oc2ccc(F)cc2)cc1 (stereo not drawn)	inactive: 13.6%
COc1ccc(OP(C)(=O)Nc2ccc(SC(F)(F)F)cc2)cc1 (stereo not drawn)	inactive: -9.02%
O=C(OC1CN2CCC1CC2)c1ccc([N+](=O)[O-])cc1 (stereo not drawn)	inactive: -5.44%
O=C(OCCN1CCN(CCOCc2ccccc2)CC1)C(O)(c1ccccc1)c1ccccc1	inactive: -9.74%
COc1ccc2c(c1O)-c1c(O)c(OC)cc3c1[C@H](C2)[N+](C)(C)CC3.O=[N+]([O-])c1cc([N+](=O)[O-])c([O-])c([N+](=O)[O-])c1[O-]	inactive: -3.68%
CP(=O)(Nc1ccccc1F)Oc1ccccc1 (stereo not drawn)	inactive: 7.42%
CC(C)c1ccc(OP(C)(=O)Nc2ccc(SC(F)(F)F)cc2)cc1 (stereo not drawn)	inactive: -4.74%
CP(=O)(Nc1ccc2c(c1)OCCO2)Oc1ccccc1 (stereo not drawn)	inactive: -2.9%
Cc1ccccc1NP(C)(=O)Nc1ccccc1C	inactive: -10.2%
CP(=O)(Nc1ccc(SC(F)(F)F)cc1)Oc1ccc(F)cc1 (stereo not drawn)	inactive: -8.3%
CCOP(C)(=S)SCC(=O)NC(C)(CC)C(=O)O (stereo not drawn)	inactive: -1.1%
O=[N+]([O-])c1ccc(OP2(=O)COCCO2)cc1 (stereo not drawn)	inactive: 0.05%
O=[N+]([O-])c1cc([N+](=O)[O-])c(NCC2CCS(=O)(=O)C2)c([N+](=O)[O-])c1 (stereo not drawn)	inactive: -6.14%
Cc1cc(-c2cccc3ccccc23)c(C)cn1.O=[N+]([O-])c1cc([N+](=O)[O-])c(O)c([N+](=O)[O-])c1	inactive: 3.81%
Cc1c(C(c2ccc3c(c2)OCO3)c2c(C)n(C)n(-c3ccccc3)c2=O)c(=O)n(-c2ccccc2)n1C.O=[N+]([O-])c1cc([N+](=O)[O-])c(O)c([N+](=O)[O-])c1	inactive: 3.9%

Compound	inhibition
COc1ccc(OP(C)(=O)Nc2cccc(Br)c2)cc1 (stereo not drawn)	inactive: -9.68%
CN(C)CCOC(=O)C(O)(c1ccccc1)C1CCCCC1 (stereo not drawn)	inactive: 9.43%
COc1ccc(NP(C)(=O)Oc2ccccc2OC)cc1 (stereo not drawn)	inactive: -9.12%
CN1CCCCC1COC(=O)C1(O)c2ccccc2CCc2ccccc21 (stereo not drawn)	inactive: -3.66%
COc1ccccc1OP(C)(=O)Nc1c(C)cccc1C (stereo not drawn)	inactive: -0.46%
CCCOc1ccc(NP(C)(=O)Oc2ccc(Cl)cc2)cc1 (stereo not drawn)	inactive: -2.49%
CP(=O)(Nc1ccc(SC(F)(F)F)cc1)Oc1ccccc1 (stereo not drawn)	inactive: -1.55%
CCOC(=O)C(CC)C1=NC(C)(C)Cc2ccccc21.O=[N+]([O-])c1cc([N+](=O)[O-])c(O)c([N+](=O)[O-])c1 (stereo not drawn)	inactive: -3.82%
CC1=C2N=C(C=C3N=C(C(C)=C4[N-][C@@](C)([C@@H]5N=C1[C@](C)(CCC(=O)NC[C@@H](C)OP(=O)([O-])O[C@H]1[C@@H](O)[C@@H](n6cnc7cc(C)c(C)cc76)O[C@@H]1CO)[C@H]5CC(N)=O)[C@@](C)(CC(N)=O)[C@@H]4CCC(N)=O)[C@@](C)(CC(N)=O)[C@@H]3CCC(N)=O)C(C)(C)[C@@H]2CCC(N)=O.[C-]#N.[Co+3]	inactive: 0.86%
O=[N+]([O-])c1cc([N+](=O)[O-])c(Nc2nnnn2CCO)c([N+](=O)[O-])c1	inactive: -0.99%
O=[N+]([O-])c1cc([N+](=O)[O-])c(-c2cnn(-c3ccccc3)c2)c([N+](=O)[O-])c1	inactive: -10.4%
Cc1nc2ccc3ccccc3c2s1.O=[N+]([O-])c1cc([N+](=O)[O-])c(O)c([N+](=O)[O-])c1	inactive: -13.6%
O=[N+]([O-])c1cc([N+](=O)[O-])c(-n2nnc3ccccc32)c([N+](=O)[O-])c1	inactive: -7.91%
Cc1ccc(C)c(NP(C)(=O)Oc2ccccc2)c1 (stereo not drawn)	inactive: 2.66%
Cc1cc(C)cc(OP(C)(=O)Nc2ccccn2)c1 (stereo not drawn)	inactive: -7.69%
CP(=O)(Nc1cccc(Br)c1)Oc1ccccc1 (stereo not drawn)	inactive: 7.32%
COc1ccccc1OP(C)(=O)Nc1cccc(Br)c1 (stereo not drawn)	inactive: 3.8%
CCOC(=O)c1ccc(NP(C)(=O)Oc2cc(C)cc(C)c2)cc1 (stereo not drawn)	inactive: -14.4%
Cc1cc(C)cc(OP(C)(=O)Nc2ccc(C)cc2C)c1 (stereo not drawn)	inactive: -0.96%
CC1=NCCc2c1[nH]c1ccccc21.O=[N+]([O-])c1cc([N+](=O)[O-])c(O)c([N+](=O)[O-])c1	inactive: -6.69%
O=C(O)c1cccc(Nc2c([N+](=O)[O-])cc([N+](=O)[O-])cc2[N+](=O)[O-])c1	inactive: 3.37%
Cc1ccc(NP(C)(=O)Oc2ccccc2)c(C)c1 (stereo not drawn)	inactive: -1.74%
COc1ccccc1OP(C)(=O)Nc1ccc(C)cc1 (stereo not drawn)	inactive: -0.52%
CCOC(=O)c1ccc(NP(C)(=O)Oc2ccccc2)cc1 (stereo not drawn)	inactive: -4.29%

Compound	inhibition
Cc1cc(C)cc(OP(C)(N)=O)c1 (stereo not drawn)	inactive: -3.08%
COc1ccc(OP(C)(=O)Nc2cccc(F)c2)cc1 (stereo not drawn)	inactive: 3.7%
COc1ccccc1OP(C)(=O)Nc1cc(Cl)ccc1C (stereo not drawn)	inactive: 9.05%
O=[N+]([O-])c1cc([N+](=O)[O-])c(Nc2cccnc2)c([N+](=O)[O-])c1	inactive: 4.19%
O=[N+]([O-])c1ccc2c(c1)C=Nc1ccccc1O2	inactive: -10.4%
Cc1cccc(C)c1OP(C)(N)=O (stereo not drawn)	inactive: 3.41%
CC(C)(C)c1ccc(OP(C)(=O)Nc2ccc(SC(F)(F)F)cc2)cc1 (stereo not drawn)	inactive: 5.2%
CCN(CC)CCCOC(=O)C(O)(c1ccccc1)c1ccccc1	inactive: -0.89%
O=[N+]([O-])c1cc([N+](=O)[O-])c(O)c([N+](=O)[O-])c1.c1ccc(Oc2ccncc2)cc1	inactive: -5.97%
CCOC(=O)c1ccc(NP(C)(=O)Oc2ccc(OC)cc2)cc1 (stereo not drawn)	inactive: -6.24%
CCOP(C)(=S)SCC(=O)NC(C)C(=O)O (stereo not drawn)	inactive: 9.13%
CP(=O)(Nc1ccccn1)Oc1ccc(Cl)cc1 (stereo not drawn)	inactive: -3.53%
CP(=O)(Oc1ccccc1)OC(c1ccccc1)C(F)(F)F (stereo not drawn)	inactive: -5.86%
CP(=O)(Nc1ccc(SC(F)(F)F)cc1)Oc1ccc(Cl)cc1 (stereo not drawn)	inactive: 3.44%
Cc1cccc(C)c1OP(C)(=O)Nc1ccc(SC(F)(F)F)cc1 (stereo not drawn)	inactive: -5.75%
Cc1cc(C)cc(OP(C)(=O)Nc2ccc(SC(F)(F)F)cc2)c1 (stereo not drawn)	inactive: 10.7%
CP(=O)(NC(=O)Nc1ccccc1)Oc1ccccc1 (stereo not drawn)	inactive: 0.87%
CCc1ccc(OP(C)(=O)N2CCN(c3ccc([N+](=O)[O-])cc3)CC2)cc1 (stereo not drawn)	inactive: -24.1%
CP(=S)(Nn1cnnc1)Oc1ccccc1 (stereo not drawn)	inactive: -3.26%
CP(=O)(Nc1ccccc1Br)Oc1ccccc1 (stereo not drawn)	inactive: 4.69%
COc1ccccc1OP(C)(=O)Nc1ccccc1 (stereo not drawn)	inactive: -6.15%
